For series [1] the following is noted: CD, [θ]225 with increasing temperature from 4 to 85 °C at 18 °C per hour; peptides in PBS, heated 95 °C 5 min, stored 4 °C overnight; Tm = temperature of minimum slope. On the procedure:
The peptides were synthesized by Fmoc-based solid-phase synthesis and purified by RP-HPLC (Figs. S3 and S4). The conformational state of the synthetic peptides was analyzed by circular dichroism (CD) spectrometry.
CD spectra were recorded on a J-820 CD spectropolarimeter (JASCO, Tokyo, Japan) equipped with a Peltier thermal controller using a 0.5-mm path-length quartz cuvette and connected to a data station for signal averaging. The peptides in PBS were heated at 95 °C for 5 min, incubated at room temperature for 10 min, and stored at 4 °C overnight to allow the formation of the triple-helical structure. Data were obtained using continuous wavelength scans from 200 to 260 nm. The spectra are reported in terms of ellipticity units per mole of amino acid residue [θ]mrw. Triple-helix thermostability was monitored by observation of each peptide [θ]225 value with increasing temperature from 4 to 85 °C at 18 °C per hour. The obtained molar ellipticity was differentiated to calculate the slopes at each temperature, and the temperature at which the minimum value was obtained was taken as the melting temperature of the triple helix (Tm).

A further series addresses T1, GST-PEDF (Mus musculus, UniProt P97298).
T1 construct: made in house
T1 sequence (P97298 20-417): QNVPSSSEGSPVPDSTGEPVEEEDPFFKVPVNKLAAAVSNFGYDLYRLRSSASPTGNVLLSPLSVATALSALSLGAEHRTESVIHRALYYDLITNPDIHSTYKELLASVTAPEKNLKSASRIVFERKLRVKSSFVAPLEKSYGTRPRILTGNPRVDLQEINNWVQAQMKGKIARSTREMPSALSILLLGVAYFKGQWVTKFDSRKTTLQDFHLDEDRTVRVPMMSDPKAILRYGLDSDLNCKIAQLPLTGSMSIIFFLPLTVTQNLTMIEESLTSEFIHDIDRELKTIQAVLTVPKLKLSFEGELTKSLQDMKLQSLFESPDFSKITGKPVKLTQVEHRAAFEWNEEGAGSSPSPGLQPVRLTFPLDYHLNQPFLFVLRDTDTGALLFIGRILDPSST
Nature of the series: Competitive ELISA: binding of GST-PEDF to type I collagen-coated wells in the presence of the synthetic peptides. As to conditions: from IC50 values of competitive ELISA; F-test; assuming 1:1 binding of trimeric peptide to PEDF. On the procedure: We performed a competitive enzyme-linked immunosorbent assay (ELISA) to evaluate the relative binding affinity of the synthetic peptides to PEDF. In this assay, a competitive decrease in the binding of glutathione S-transferase (GST)-PEDF-fusion protein to the type I collagen-coated wells by the addition of the peptides was quantified by immuno-enzymatic colorimetric detection. […] The relative PEDF-binding affinity of the peptides was evaluated using the IC50 values derived from the binding inhibitory curves (Table 2 and Fig. 5).
GST-fused PEDF was prepared in accordance with a previous report (Fig. S7) ([15]). The synthetic peptides were annealed by the above method before being used in the assay. Wells were coated with 10 μg/ml collagen I (Koken, Tokyo, Japan) overnight. After coating, wells were blocked with 0.5% skim milk in ELISA buffer [20 mM HEPES-Na (pH 7.4), 100 mM NaCl, 0.005% Tween 20]. The annealed peptides were preincubated with 3 nM GST-PEDF to be tested in the ELISA buffer for 10 min at room temperature. The mixtures were added to wells and incubated for 90 min at 4 °C. […] After 30 min, the absorbance at 405 nm was measured on a Vient XS multiwell plate reader (DS Pharma, Osaka, Japan). […] The p-value was calculated from an F-test.
(In an ELISA, binding on a coated surface is turned into a signal by an enzyme label.)

`CSCC[C@H](NC(=O)[C@H](Cc1ccccc1)NC(=O)CNC(=O)[C@H](CCCNC(=N)N)NC(=O)[C@H](CCCNC(=N)N)NC(=O)CNC(=O)[C@H](CC(N)=O)NC(=O)[C@@H]1CCCN1C(=O)CNC(=O)[C@@H]1C[C@@H](O)CN1C(=O)[C@@H]1CCCN1C(=O)CNC(=O)[C@@H]1C[C@@H](O)CN1C(=O)[C@@H]1CCCN1C(=O)CNC(=O)[C@@H]1C[C@@H](O)CN1C(=O)[C@@H]1CCCN1C(=O)CNC(=O)[C@@H]1C[C@@H](O)CN1C(=O)[C@@H]1CCCN1C(=O)[C@@H](N)Cc1ccc(O)cc1)C(=O)NCC(=O)N[C@@H](CCSC)C(=O)N1C[C@H](O)C[C@H]1C(=O)NCC(=O)N1CCC[C@H]1C(=O)N1C[C@H](O)C[C@H]1C(=O)NCC(=O)N1CCC[C@H]1C(=O)N1C[C@H](O)C[C@H]1C(=O)NCC(=O)N1CCC[C@H]1C(=O)N1C[C@H](O)C[C@H]1C(=O)NCC(=O)N1CCC[C@H]1C(=O)N1C[C@H](O)C[C@H]1C(=O)NCC(=O)N1CCC[C@H]1C(N)=O` [pep6]: the “Melting temperature of the triple helix (Tm)” value (“Melting temperature” below) in series [1] is 37.0 °C.
For `CC(C)C[C@H](NC(=O)CNC(=O)[C@H](Cc1c[nH]cn1)NC(=O)[C@H](Cc1ccccc1)NC(=O)CNC(=O)[C@H](CCCNC(=N)N)NC(=O)[C@H](CCCNC(=N)N)NC(=O)CNC(=O)[C@H](CCCCN)NC(=O)[C@@H]1CCCN1C(=O)CNC(=O)[C@@H]1C[C@@H](O)CN1C(=O)[C@@H]1CCCN1C(=O)CNC(=O)[C@@H]1C[C@@H](O)CN1C(=O)[C@@H]1CCCN1C(=O)CNC(=O)[C@@H]1C[C@@H](O)CN1C(=O)[C@@H]1CCCN1C(=O)CNC(=O)[C@@H]1C[C@@H](O)CN1C(=O)[C@@H]1CCCN1C(=O)[C@@H](N)Cc1ccc(O)cc1)C(=O)N1C[C@H](O)C[C@H]1C(=O)NCC(=O)N1CCC[C@H]1C(=O)N1C[C@H](O)C[C@H]1C(=O)NCC(=O)N1CCC[C@H]1C(=O)N1C[C@H](O)C[C@H]1C(=O)NCC(=O)N1CCC[C@H]1C(=O)N1C[C@H](O)C[C@H]1C(=O)NCC(=O)N1CCC[C@H]1C(=O)N1C[C@H](O)C[C@H]1C(=O)NCC(=O)N1CCC[C@H]1C(N)=O` [pep7], on GST-PEDF, the “Binding affinity to PEDF relative to pepα1(I)930–938” value is on record as “more potent”. In addition, in series [1], the “Melting temperature” value was determined as 35.0 °C.
As to `CC(C)C[C@H](NC(=O)[C@H](Cc1ccccc1)NC(=O)CNC(=O)[C@H](CCCNC(=N)N)NC(=O)[C@H](Cc1c[nH]cn1)NC(=O)CNC(=O)[C@H](CCCNC(=N)N)NC(=O)[C@@H]1CCCN1C(=O)CNC(=O)[C@@H]1C[C@@H](O)CN1C(=O)[C@@H]1CCCN1C(=O)CNC(=O)[C@@H]1C[C@@H](O)CN1C(=O)[C@@H]1CCCN1C(=O)CNC(=O)[C@@H]1C[C@@H](O)CN1C(=O)[C@@H]1CCCN1C(=O)CNC(=O)[C@@H]1C[C@@H](O)CN1C(=O)[C@@H]1CCCN1C(=O)[C@@H](N)Cc1ccc(O)cc1)C(=O)NCC(=O)N[C@@H](CC(C)C)C(=O)N1C[C@H](O)C[C@H]1C(=O)NCC(=O)N1CCC[C@H]1C(=O)N1C[C@H](O)C[C@H]1C(=O)NCC(=O)N1CCC[C@H]1C(=O)N1C[C@H](O)C[C@H]1C(=O)NCC(=O)N1CCC[C@H]1C(=O)N1C[C@H](O)C[C@H]1C(=O)NCC(=O)N1CCC[C@H]1C(=O)N1C[C@H](O)C[C@H]1C(=O)NCC(=O)N1CCC[C@H]1C(N)=O` [pep3], the “Melting temperature” value in series [1] worked out at 43.6 °C.
Take `C[C@@H](O)[C@H](NC(=O)[C@H](Cc1ccccc1)NC(=O)CNC(=O)[C@H](CCCNC(=N)N)NC(=O)[C@@H]1CCCN1C(=O)CNC(=O)[C@H](CCCNC(=N)N)NC(=O)[C@@H]1CCCN1C(=O)CNC(=O)[C@@H]1C[C@@H](O)CN1C(=O)[C@@H]1CCCN1C(=O)CNC(=O)[C@@H]1C[C@@H](O)CN1C(=O)[C@@H]1CCCN1C(=O)CNC(=O)[C@@H]1C[C@@H](O)CN1C(=O)[C@@H]1CCCN1C(=O)CNC(=O)[C@@H]1C[C@@H](O)CN1C(=O)[C@@H]1CCCN1C(=O)[C@@H](N)Cc1ccc(O)cc1)C(=O)NCC(=O)N[C@@H](Cc1ccccc1)C(=O)N1C[C@H](O)C[C@H]1C(=O)NCC(=O)N1CCC[C@H]1C(=O)N1C[C@H](O)C[C@H]1C(=O)NCC(=O)N1CCC[C@H]1C(=O)N1C[C@H](O)C[C@H]1C(=O)NCC(=O)N1CCC[C@H]1C(=O)N1C[C@H](O)C[C@H]1C(=O)NCC(=O)N1CCC[C@H]1C(=O)N1C[C@H](O)C[C@H]1C(=O)NCC(=O)N1CCC[C@H]1C(N)=O` [pep10]: the “Binding affinity to PEDF relative to pepα1(I)930–938” value on GST-PEDF is reported as “comparable”. In addition, in series [1], the “Melting temperature” value was 57.6 °C.
Turning to `CC(C)C[C@H](NC(=O)CNC(=O)[C@H](CCCNC(=N)N)NC(=O)[C@H](CCCNC(=N)N)NC(=O)CNC(=O)[C@@H](NC(=O)[C@@H]1CCCN1C(=O)CNC(=O)[C@@H]1C[C@@H](O)CN1C(=O)[C@@H]1CCCN1C(=O)CNC(=O)[C@@H]1C[C@@H](O)CN1C(=O)[C@@H]1CCCN1C(=O)CNC(=O)[C@@H]1C[C@@H](O)CN1C(=O)[C@@H]1CCCN1C(=O)CNC(=O)[C@@H]1C[C@@H](O)CN1C(=O)[C@@H]1CCCN1C(=O)[C@@H](N)Cc1ccc(O)cc1)C(C)C)C(=O)N[C@@H](CO)C(=O)NCC(=O)N[C@@H](CC(C)C)C(=O)N1C[C@H](O)C[C@H]1C(=O)NCC(=O)N1CCC[C@H]1C(=O)N1C[C@H](O)C[C@H]1C(=O)NCC(=O)N1CCC[C@H]1C(=O)N1C[C@H](O)C[C@H]1C(=O)NCC(=O)N1CCC[C@H]1C(=O)N1C[C@H](O)C[C@H]1C(=O)NCC(=O)N1CCC[C@H]1C(=O)N1C[C@H](O)C[C@H]1C(=O)NCC(=O)N1CCC[C@H]1C(N)=O` [pep11], the “Melting temperature” value in series [1] was 41.8 °C.
Same read-out and setting: then `CC(C)C[C@H](NC(=O)CNC(=O)[C@H](CCCNC(=N)N)NC(=O)[C@@H]1CCCN1C(=O)CNC(=O)[C@H](CCCNC(=N)N)NC(=O)[C@@H]1CCCN1C(=O)CNC(=O)[C@@H]1C[C@@H](O)CN1C(=O)[C@@H]1CCCN1C(=O)CNC(=O)[C@@H]1C[C@@H](O)CN1C(=O)[C@@H]1CCCN1C(=O)CNC(=O)[C@@H]1C[C@@H](O)CN1C(=O)[C@@H]1CCCN1C(=O)CNC(=O)[C@@H]1C[C@@H](O)CN1C(=O)[C@@H]1CCCN1C(=O)[C@@H](N)Cc1ccc(O)cc1)C(=O)N[C@H](C(=O)NCC(=O)N[C@@H](Cc1ccccc1)C(=O)N1C[C@H](O)C[C@H]1C(=O)NCC(=O)N1CCC[C@H]1C(=O)N1C[C@H](O)C[C@H]1C(=O)NCC(=O)N1CCC[C@H]1C(=O)N1C[C@H](O)C[C@H]1C(=O)NCC(=O)N1CCC[C@H]1C(=O)N1C[C@H](O)C[C@H]1C(=O)NCC(=O)N1CCC[C@H]1C(=O)N1C[C@H](O)C[C@H]1C(=O)NCC(=O)N1CCC[C@H]1C(N)=O)[C@@H](C)O` [pep5], with 53.8 °C.

The record behind these values is paper PMC11533527, “A yeast two-hybrid system to obtain triple-helical ligands from combinatorial random peptide libraries” (The Journal of Biological Chemistry, 2024).
